Data reported in PubChem BioAssay AID463195 (Sanford-Burnham Center for Chemical Genomics, 2010).
The list shows a part of the results, in another mix than the full data. The source made the active and inactive calls.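 Rule for the calls: active = inhibition of 40% or more at the single tested concentration; inactive = the rest.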

Test: growth inhibitors of isogenic TIM10 control yeast, primary screen, counter-screen for tim10-1 yeast inhibitor project, luminescence, uHTS (AID 463195);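 note: wild-type TIM10 isogenic control strain grown at permissive 25 °C; 0% = DMSO yeast wells and 100% = minimal medium wells without yeast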
Settings: S. cerevisiae TIM10 strain growth, BacTiter-Glo luminescence, 24 h; at 10 µM; stronger effect = higher value

Compound | inhibition
NC(=O)Nc1ccc([As](=O)(O)O)cc1 | inactive: -0.771%
N#CCCN(C(=O)COC(=O)C(O)(c1ccccc1)c1ccccc1)c1ccc(F)cc1 | inactive: 13%
CN(C(=O)Cc1ccccc1)[C@@H]1CC[C@]2(CCCO2)C[C@H]1N1CCCC1 | inactive: 8.1%
CCOP1(=S)c2c(C)nn(CCC#N)c2N=C(c2ccc(F)cc2)N1C (centres undefined) | inactive: 2.44%
O=[N+]([O-])c1ccc2c(c1)nnn2O | inactive: -3.72%
CN(C)C(=O)c1cc([N+](=O)[O-])cc2c1-c1c(cc([N+](=O)[O-])cc1[N+](=O)[O-])C2=O | active: 78.3%
CN(C(=O)Cc1ccc(Cl)c(Cl)c1)[C@H]1CC[C@@]2(CCCO2)C[C@@H]1N1CCCC1 | inactive: 1.19%
CCOP1(=S)c2c(C)nn(CCC#N)c2N=C(c2ccccc2F)N1C (centres undefined) | inactive: 27.3%
O=P(Nc1nccs1)(Oc1ccccc1)Oc1ccccc1 | inactive: 15.3%
O=P(Nc1nccs1)(c1ccccc1)c1nc2ccccc2s1 (centres undefined) | inactive: -10.2%
CS(=O)(=O)c1cc([N+](=O)[O-])c2no[n+]([O-])c2c1 | inactive: -1.21%
Nc1ccccc1[As](=O)(O)c1ccccc1 | inactive: -6.35%
O=C(O)COc1ccc([As](=O)(O)O)cc1[N+](=O)[O-] | inactive: -7.77%
Cc1ccc(NCCc2c([N+](=O)[O-])cc([N+](=O)[O-])cc2[N+](=O)[O-])cc1 | active: 47.3%
CCCOP(=S)(Nc1nc(N)cc(=O)[nH]1)OCCC | inactive: -10.7%
COc1cc(C2NCCC3(OCCO3)C2(C)C)cc(OC)c1OC (centres undefined) | inactive: 6.84%
CCOP(=O)(Nc1cccc2ccccc12)OCC | inactive: -0.764%
O=C(OC1CN2CCC1CC2)c1ccc(Cl)cc1 (centres undefined) | inactive: -12.2%
O=[As](O)(O)c1cccnc1 | inactive: -0.425%
COc1cc(C(=O)NCC2(N3CCOCC3)CCCCC2)cc(Cl)c1OC(C)C | inactive: 8.47%
CS(=O)(=O)c1ccc(Cl)c(NC(=O)COC(=O)C(O)(c2ccccc2)c2ccccc2)c1 | inactive: 4.15%
Cc1cccc(OCC(=O)OC2CN3CCC2CC3)c1 (centres undefined) | inactive: -6.7%

Compound | inhibition
O=[As](O)(c1cccc(O)c1)c1cccc(O)c1 | inactive: 12.1%
COc1ccccc1CNC(=O)COC(=O)C(O)(c1ccccc1)c1ccccc1 | inactive: 15.8%
CC(C)/C=N\N=C(\N)N[N+](=O)[O-] | inactive: -12.2%
CN(C(=O)Cc1ccc(Cl)c(Cl)c1)[C@@H]1CCCC[C@H]1N1CCCC1 | inactive: 2.91%
O=[As](O)(c1ccccc1Br)c1ccccc1Br | inactive: 8.47%
CC1(CBr)Cn2c(nc3ccccc3c2=O)S1 (centres undefined) | inactive: -12.3%
O=P1(Nc2ccccn2)COc2ccccc2OC1 | inactive: -8.02%
CCC1=CC2Cc3nc4ccc(Cl)cc4c(N)c3C(C1)C2 (centres undefined) | inactive: 0.468%
CCOP(=O)(NC(=NC(C)c1ccccc1)NC(C)c1ccccc1)OCC (centres undefined) | inactive: 25%
CCOP(=O)(Nc1ccc(C)cn1)OCC | inactive: -17.6%
CN(CCCl)Cc1cc(Cl)c(NC2=NCCN2)c(Cl)c1 | inactive: -9.45%
Clc1n[nH]nc1-c1nn[nH][15n]1 | inactive: 4.53%
CC(C)(C)C(=O)NC(Sc1ncccn1)C(Cl)(Cl)Cl (centres undefined) | inactive: -3.95%
O=P1(Nc2ncccn2)COc2ccccc2OC1 | inactive: -19.4%
Nc1cccc([As](=O)(O)c2ccccc2)c1 | inactive: -10.4%
Cc1ccc(OCC(=O)OC2CN3CCC2CC3)cc1 (centres undefined) | inactive: -4.66%
O=[As](O)(c1cccs1)c1cccs1 | inactive: 5.03%
O=P1(Nc2ccc(Br)cn2)COc2ccccc2OC1 | inactive: -1.07%
NS(=O)(=O)c1cccc(NC(=O)COC(=O)C(O)(c2ccccc2)c2ccccc2)c1 | inactive: 4.28%
Cc1nn(-c2ccccc2)c2c1P(=O)(N1CCOCC1)N(C)C(c1ccccc1)=N2 (centres undefined) | inactive: 6.17%
CC1CCC(C(C)C)C(OP(=O)(Nc2ccccn2)c2ccccc2)C1 (centres undefined) | inactive: 31.4%
Cc1ccc(C(=O)OC2CN3CCC2CC3)cc1 (centres undefined) | inactive: -0.553%

Compound | inhibition
CN(C)C1(CNC(=O)c2ccc(S(C)(=O)=O)cc2)CCCCC1 | inactive: -23.6%
O=C(/C=C/c1ccccc1)OC1CN2CCC1CC2 (centres undefined) | inactive: 6.33%
CCOC(=O)Nc1cccc([As](=O)(O)O)c1 | inactive: 6.75%
O=P(Nc1ccccn1)(c1cccc2ccccc12)c1cccc2ccccc12 | inactive: 28.1%
Cc1cc(SC(NC=O)C(Cl)(Cl)Cl)ncn1 (centres undefined) | inactive: 10.5%
CCOC(=O)Nc1ccc([As](=O)(O)O)c(O)c1 | inactive: 0.815%
CCCCOc1ccc(C(=O)NCC2(N3CCCCC3)CCCCC2)cc1OC | inactive: 6.18%
Cc1cc(SC(NC(=O)c2ccccc2)C(Cl)(Cl)Cl)nc(C(C)C)n1 (centres undefined) | inactive: 24.2%
O=C(OC1CN2CCC1CC2)c1cccc([N+](=O)[O-])c1 (centres undefined) | inactive: -99.5%
CCOC(=O)c1ccc(NC(=O)C(C)(CCl)SC)cc1 (centres undefined) | inactive: -2.35%
CCC(C)N(CC(C)C)C(=S)SC(NC(C)=O)C(Cl)(Cl)Cl (centres undefined) | inactive: 10.3%
COP1(=S)c2c(C)nn(CCC#N)c2N=C(c2ccc(F)cc2)N1C (centres undefined) | inactive: 4.43%
O=C(COc1ccccc1)OC1CN2CCC1CC2 (centres undefined) | inactive: -21.8%
O=C(Nc1ccncc1[N+](=O)[O-])c1ccc([N+](=O)[O-])cc1[N+](=O)[O-] | inactive: 25%
COc1ccc(N/C(=N/P(=O)(N2CCOCC2)N2CCOCC2)N2CCOCC2)cc1 | inactive: -7.1%
Cc1c2c(nc3ccccc13)SC(C(Cl)Cl)C2 (centres undefined) | inactive: -1.06%
O=C(OC1CN2CCC1CC2)C12CC3CC(CC(C3)C1)C2 (centres undefined) | inactive: -3.7%
Cc1cc(=O)[nH]c(N[N+](=O)[O-])n1 | inactive: -6.52%
COc1ccc2nc(NP(=O)(c3ccccc3)c3ccccc3)sc2c1 | inactive: -15.2%
COc1cc(I)ccc1[As](=O)(O)O | inactive: 4.63%
